Results on two compounds are retold here after publication PMC8071183 (International Journal of Molecular Sciences, 2021).

Sequences of proteins named here, by UniProt entry; tags and fusion partners are left off. Residues count along the entry.
UniProt P14416, 1-414 isoform P14416-2: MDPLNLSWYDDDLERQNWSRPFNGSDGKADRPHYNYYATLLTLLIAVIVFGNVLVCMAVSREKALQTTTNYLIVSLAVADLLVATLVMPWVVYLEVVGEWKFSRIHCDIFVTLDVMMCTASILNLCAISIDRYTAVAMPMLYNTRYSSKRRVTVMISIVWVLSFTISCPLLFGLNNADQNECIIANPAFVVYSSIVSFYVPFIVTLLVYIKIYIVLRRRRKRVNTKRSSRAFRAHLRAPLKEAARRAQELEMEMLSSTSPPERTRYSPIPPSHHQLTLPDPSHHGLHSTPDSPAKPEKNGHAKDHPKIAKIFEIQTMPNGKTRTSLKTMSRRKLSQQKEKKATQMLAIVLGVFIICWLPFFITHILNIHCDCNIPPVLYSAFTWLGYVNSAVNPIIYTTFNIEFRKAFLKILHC
UniProt P14416, 1-414 isoform P14416-2 S193A: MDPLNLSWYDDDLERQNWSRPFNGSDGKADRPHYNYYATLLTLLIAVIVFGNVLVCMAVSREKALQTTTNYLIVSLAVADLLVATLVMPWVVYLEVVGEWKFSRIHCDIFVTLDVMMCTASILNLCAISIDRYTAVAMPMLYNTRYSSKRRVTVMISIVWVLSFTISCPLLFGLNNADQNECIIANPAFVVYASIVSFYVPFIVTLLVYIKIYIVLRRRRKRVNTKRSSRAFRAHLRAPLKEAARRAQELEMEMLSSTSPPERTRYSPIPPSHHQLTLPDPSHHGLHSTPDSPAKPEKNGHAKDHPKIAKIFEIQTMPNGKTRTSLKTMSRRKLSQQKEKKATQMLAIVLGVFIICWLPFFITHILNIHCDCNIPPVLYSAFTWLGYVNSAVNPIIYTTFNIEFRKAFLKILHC

For assay [1], the target named is T1, WT D2R (human dopamine D2S receptor) (Homo sapiens, UniProt P14416). Put plainly: cell-based. The note with it: GIRK activation, perfusion 1 mL/min.
Assay [2] addresses T2, D2R S193^5.42A (human dopamine D2S receptor mutant) (Homo sapiens, UniProt P14416, S193A). Kind of assay: cell-based.
For assay [3], the target named is T1, WT D2R (human dopamine D2S receptor). Kind of assay: GIRK current activation rate (kobs) vs agonist concentration (kon estimate), WT D2R. The format is cell-based.
Assay [4] concerns the target T2, D2R S193^5.42A (human dopamine D2S receptor mutant). Put plainly: cell-based. The source holds these as a separate data set.

As usually defined, the EC50 is the midpoint of the concentration-response curve. A low value points to greater potency. The Kd is the concentration at which binding is half-saturated.

For `CCCN(CCC)[C@@H]1CCc2c(O)cccc2C1` [(R)-5-OH-DPAT, (R)-5-OH-dipropylaminotetralin], the EC50 was 141 nM in assay [1] (EC50, WT D2R) and 85 nM in assay [4]. Besides, the Kd in assay [2] is 35.5 nM; in assay [3], 34.7 nM.

For `CCCN(CCC)[C@H]1CCc2c(O)cccc2C1` [(S)-5-OH-DPAT, (S)-5-OH-dipropylaminotetralin], the concentration giving a half-maximal response (EC50) in assay [1] (EC50, WT D2R) is 5 nM; in assay [1] (pEC50 ± SEM, WT D2R) it was 5.25 nM; in assay [4], 275 nM. The Kd in assay [2] was 33.9 nM; in assay [3], 0.977 nM.
